Data reported in US20150011423A1, “MEANS AND METHODS FOR ASSESSING KIDNEY TOXICITY” (BASF SE, priority 2011, published 2015).
Marks after values point to notes of the source that are not given here.

Test system: rats
Assay: 28-day repeated dose study in rats with mass spectrometry-based plasma metabolite profiling (GC-MS, LC-MS, SPE-LC-MS); treatment ratios versus control
Details: female rats; for Creatinine, treatment ratio versus control / Galactose, lipid fraction, treatment ratio versus control / Glucuronic acid, treatment ratio versus control / Glycerol-3-phosphate, polar fraction, treatment ratio versus control / Glycine, treatment ratio versus control / Histidine, treatment ratio versus control / Isoleucine, treatment ratio versus control / Leucine, treatment ratio versus control / Lysophosphatidylcholine (C18:1), treatment ratio versus control / Phosphatidylcholine No 02, treatment ratio versus control / TAG No 05, treatment ratio versus control / Threonic acid, treatment ratio versus control / Threonine, treatment ratio versus control / Uracil, treatment ratio versus control / Valine, treatment ratio versus control / Xylitol, treatment ratio versus control: Table 3a tubular defect; for Cysteine, treatment ratio versus control / Glycerol, polar fraction, treatment ratio versus control / Hippuric acid, treatment ratio versus control / Indole-3-acetic acid, treatment ratio versus control / Spermidine, treatment ratio versus control / Sucrose, treatment ratio versus control: Table 3b tubular defect

`CC(=O)/C=C/C1=C(C)CCCC1(C)C` [Beta-ionone] was tested, and the “Creatinine, treatment ratio versus control” value (day 14, high dose) was 1.61^, the “Galactose, lipid fraction, treatment ratio versus control” value (day 14, high dose) was 2.02 * and the “Glucuronic acid, treatment ratio versus control” value (day 14, high dose) was 2.55 *. For the same molecule, the “Glycerol-3-phosphate, polar fraction, treatment ratio versus control” value (day 14, high dose) was 0.98^, the “Glycine, treatment ratio versus control” value (day 14, high dose) was 1.17^ and the “Histidine, treatment ratio versus control” value (day 14, high dose) was 1.31 *. The “Isoleucine, treatment ratio versus control” value (day 14, high dose) was 1.14^, the “Leucine, treatment ratio versus control” value (day 14, high dose) was 1.26^ and the “Lysophosphatidylcholine (C18:1), treatment ratio versus control” value (day 14, high dose) was 1.34 *. For the same molecule, the “Phosphatidylcholine No 02, treatment ratio versus control” value (day 14, high dose) was 1.99 *, the “TAG No 05, treatment ratio versus control” value (day 14, high dose) was 1.65 * and the “Threonic acid, treatment ratio versus control” value (day 14, high dose) was 1.11^. The “Threonine, treatment ratio versus control” value (day 14, high dose) was 1.57 *, the “Uracil, treatment ratio versus control” value (day 14, high dose) was 0.94^ and the “Valine, treatment ratio versus control” value (day 14, high dose) was 1.19 *. The “Xylitol, treatment ratio versus control” value (day 14, high dose) was 1.32 *, the “Cysteine, treatment ratio versus control” value (day 14, high dose) was 0.86 and the “Glycerol, polar fraction, treatment ratio versus control” value (day 14, high dose) was 0.83. For the same molecule, the “Hippuric acid, treatment ratio versus control” value (day 14, high dose) was 0.55, the “Indole-3-acetic acid, treatment ratio versus control” value (day 14, high dose) was 0.62 * and the “Spermidine, treatment ratio versus control” value (day 14, high dose) was 0.54 *. For the same molecule, the “Sucrose, treatment ratio versus control” value (day 14, high dose) was 1.02, the “Creatinine, treatment ratio versus control” value (day 28, high dose) was 1.61 and the “Galactose, lipid fraction, treatment ratio versus control” value (day 28, high dose) was 2.58 *. The “Glucuronic acid, treatment ratio versus control” value (day 28, high dose) was 2.03 *, the “Glycerol-3-phosphate, polar fraction, treatment ratio versus control” value (day 28, high dose) was 1.25 and the “Glycine, treatment ratio versus control” value (day 28, high dose) was 1.18. For the same molecule, the “Histidine, treatment ratio versus control” value (day 28, high dose) was 1.21 *, the “Isoleucine, treatment ratio versus control” value (day 28, high dose) was 1.32 and the “Leucine, treatment ratio versus control” value (day 28, high dose) was 1.36. The “Lysophosphatidylcholine (C18:1), treatment ratio versus control” value (day 28, high dose) was 1.42 *, the “Phosphatidylcholine No 02, treatment ratio versus control” value (day 28, high dose) was 1.76 * and the “TAG No 05, treatment ratio versus control” value (day 28, high dose) was 1.5. For the same molecule, the “Threonic acid, treatment ratio versus control” value (day 28, high dose) was 1.21, the “Threonine, treatment ratio versus control” value (day 28, high dose) was 1.46 * and the “Uracil, treatment ratio versus control” value (day 28, high dose) was 0.94. The “Valine, treatment ratio versus control” value (day 28, high dose) was 1.42, the “Xylitol, treatment ratio versus control” value (day 28, high dose) was 1.88 and the “Cysteine, treatment ratio versus control” value (day 28, high dose) was 1.06. For the same molecule, the “Glycerol, polar fraction, treatment ratio versus control” value (day 28, high dose) was 0.65, the “Hippuric acid, treatment ratio versus control” value (day 28, high dose) was 0.5 * and the “Indole-3-acetic acid, treatment ratio versus control” value (day 28, high dose) was 0.81. For the same molecule, the “Spermidine, treatment ratio versus control” value (day 28, high dose) was 1.17 and the “Sucrose, treatment ratio versus control” value (day 28, high dose) was 1.37.
